Values quoted from earlier work as cited in patent US11701433B2, “Complexes for delivery of antigenic peptides” (The Regents of the University of Michigan, priority 2017, dated 2023).

System: HNSCC cells
Settings: 5 μg/ml cetuximab alone; cited from earlier work

In the case of “cetuximab: EGFR-targeted antibody that activates antibody-dependent cytotoxicity (ADCC)”, the cytotoxic effects is listed as “did not demonstrate any cytotoxic effects”.
